From ChEMBL document CHEMBL2177033, “N-substituted phenoxazine and acridone derivatives: structure-activity relationships of potent P2X4 receptor antagonists” (J Med Chem, 2012)

Tests used:
1321-N1 = experiment: Selectivity ratio of IC50 for rat P2X4 receptor to IC50 for human P2X4 receptor expressed in 1321N1 cells
P2X purinoceptor 4 = P2X purinoceptor 4 (Homo sapiens, UniProt Q99571); experiment: Competitive antagonist activity at human P2X4 receptor expressed in 1321N1 cell membrane assessed as inhibition of [35S]ATPgammaS binding by scintillation counting

Nc1ncnc2c1ncn2[C@@H]1O[C@H](COP(=O)(O)OP(=O)(O)OP(=O)(O)O)[C@H]2OC3(O[C@H]21)C([N+](=O)[O-])=CC(=[N+]([O-])[O-])C=C3[N+](=O)[O-] (some centres not stated) [TNP-ATP]
Ratio IC50 (1321-N1): 3 | inhibition (P2X purinoceptor 4): Dose-dependent effect
